# Antibody variant affinities, Ab-14 light chain, assay B

Data: MIT Lincoln Laboratory AlphaSeq set, Li et al. 2023, doi:10.1038/s41467-023-39022-2, as distributed in FLAb.

Antigen: PDVDLGDISGINAS, a 14-residue peptide of the SARS-CoV-2 spike HR2 region.

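Phage display of a naive human antibody library on the peptide gave the parent. These sequences belong to a second round, designed from the earlier measurements on random variants of the parent. Group labels follow the data file (En: ensemble of fine-tuned language models; GP: Gaussian process model; HC: hill climbing; Gen: genetic algorithm; Gibbs: Gibbs sampling; a sequence that several methods proposed may carry one label only). AlphaSeq pools MATa yeast showing the antibodies with MATalpha yeast showing the peptide. Pairs that bind mate more often; barcode pairs of the diploids are counted by sequencing. A regression on co-assayed BCL2-family reference pairs converts the normalised counts of each replicate to an apparent Kd. Each pool was mated in six replicate cultures.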

Ab-14 is the parent antibody, in scFv form: VH, then the linker GGGGSGGGGSGGGGS, then VL. The heavy chain is unchanged in all variants.
VH: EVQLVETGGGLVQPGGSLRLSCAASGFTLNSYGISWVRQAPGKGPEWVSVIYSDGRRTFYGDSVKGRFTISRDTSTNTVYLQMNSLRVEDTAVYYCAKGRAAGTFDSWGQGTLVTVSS
VL: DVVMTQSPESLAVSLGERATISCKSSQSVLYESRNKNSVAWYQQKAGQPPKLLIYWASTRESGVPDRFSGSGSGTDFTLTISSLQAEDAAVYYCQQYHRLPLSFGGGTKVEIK

The parent's light chain CDRs are KSSQSVLYESRNKNSVA, WASTRES, QQYHRLPLS; each variant's own CDRs replace them letter for letter.
This list holds designs with more than six substitutions.
The Kd shown is the geometric mean over detected replicates; a lower Kd is a better binder.
"no signal" marks a missing value. The strain was present, yet no cells mated with the target were sequenced in any replicate, which points to weak or no binding.
The parent sequence was in this pool as ten entries: three were never detected, three once, and four in most replicates, with averages from 2.2 nM to 240 nM.
In the paper, a design with two or fewer of six values counts as a poor binder.
Three control strains display no target. For all light chain designs, 4% of the pairings with them gave a signal, with a median of 430 nM and one signal in twenty below 38 nM, so weak values seen in few replicates may be background.
A sequence measured in both rounds can read differently, since the two assays cover different ranges.

The variant KQQQGELMESRNKNSVA | HASERES | QQYHRLPLS [GP_Gibbs] showed 2.4 nM (6 of 6 replicates). The variant MLSDLVKMGSRNENSVA | DNSTRGS | QQYDRLPLS [En_HC] showed no signal (0 of 6 replicates). With RLSASSGIQSVERNSVA | QNSTRES | QQYDHLPLS [En_Gen] the result was 340 nM (3 of 6 replicates). For HMSTLTLMGMRQRNSVA | QMTTREN | QQYDRLPLA [En_Gen], the assay gave 12 nM (6 of 6 replicates). The variant KLYFNVGTMTHNKQSIA | DMERRED | QQYHRLPLS [En_HC] showed 1.7 nM (6 of 6 replicates). The variant KLYQAMGYLSHNKNSIA | DMSRREN | QQYHRLPLS [En_HC] gave 1.7 nM (6 of 6 replicates).

For KIYASTMLESHDKNSIA | DLTTRGN | QQYHRLPLS [En_HC], the assay gave 2.1 nM (6 of 6 replicates). The variant KVSEFMKGLTMRKDSIA | DNTTREN | QQYDRLPLS [En_Gen] showed 78 nM (3 of 6 replicates). For KVSQLNLYESRNANNVA | NASLREM | QQYHRLPLS [GP_Gibbs], the assay gave 660 pM (6 of 6 replicates). With KVSTSQEYEDRNKNSVA | HASTREQ | QQYHRLPLS [GP_Gibbs] the result was 1.4 nM (6 of 6 replicates). The variant KLSQVTHSESRNKNSIA | EMVTREY | QQYDRLPLS [En_HC] gave 7.5 nM (6 of 6 replicates). The variant KLSTVTEYESRNKNNVA | DLSTRGS | QDYHRLPLS [En_HC] gave 650 pM (6 of 6 replicates).

With FMEMDFQENSGNHNSIA | SEEVKTR | QHYARLPLS [En_Gibbs] the result was no signal (0 of 6 replicates). With KLSQSYEYESNNSNSVA | NASQREH | QQYHRLPLR [GP_Gibbs] the result was 5.3 nM (6 of 6 replicates). For TLSHSTDLETVHKNSIA | DLMTRES | QQYHRLPLS [En_HC], the assay gave 3.5 nM (6 of 6 replicates). With KIGMTLNQLLHQKNNVA | DLVERED | QQYHRLPLS [En_Gen] the result was 4.1 nM (6 of 6 replicates). For KLSQGVLMESRNKNSVA | NAGQREE | QQYHRLPLS [GP_Gibbs], the assay gave 560 pM (6 of 6 replicates). The variant KLSMVTGHMSIEKNNVA | EMETREN | QQYDRLPLS [En_Gen] showed 57 nM (6 of 6 replicates).

The variant MLSQMWALGSKVSNSVA | QASMRFN | QQYDRLPLI [En_Gen] gave 230 nM (1 of 6 replicates). For ALTNEFESVSHHKNNIA | HTSQRCM | QQYATLPLS [En_Gibbs], the assay gave 31 nM (6 of 6 replicates). The variant SLYDATLMESRNKNPIA | DVSTRPS | QQYDRLPLS [En_HC] gave 1.7 nM (6 of 6 replicates). The variant SLYEAMQTGGLRTSNIA | DVNQQMR | QHYSRLPLA [En_Gibbs] showed 4.0 nM (6 of 6 replicates). The variant KLSQWWLYESRMKNAVA | NASTRED | QQYHRLPLS [GP_Gibbs] showed 1.2 nM (6 of 6 replicates). With NMQLQVRNGNNNKYNIA | AEMKREY | QQYNRLPLS [En_Gibbs] the result was 13 nM (2 of 6 replicates).

The variant ILYDSVGTLSRNRNSVA | DNSTRES | QQYDRLPLS [En_HC] gave 160 nM (6 of 6 replicates). For TISQVLNTLTKTGNNVA | DLAERED | QQYFRLPLS [En_Gen], the assay gave 5.8 nM (6 of 6 replicates). The variant MISQLINMGQFAINSVA | QAETRCN | QQYDRLPLV [En_Gen] showed 8.5 nM (6 of 6 replicates). For NISQMFFMETKHVNNVA | QTSTREE | QDYHRLPLS [En_HC], the assay gave 2.5 nM (6 of 6 replicates). For MISQLYNMGQFAINSVA | QASTRHE | QQYDRLPLI [En_Gen], the assay gave 11 nM (6 of 6 replicates). For KISQSWLYEPRNSNSVA | NASTRLQ | QQYHRLPLS [GP_Gibbs], the assay gave 630 pM (6 of 6 replicates).

For KLSQSQCYESRNKNNVA | NASDRMS | QQYHRLPLS [GP_Gibbs], the assay gave 580 pM (6 of 6 replicates). The variant TISGSANYESTNKNSVA | ELTTRGS | QQYVRLPLS [En_HC] gave 7.0 nM (6 of 6 replicates). With KMEQSDWLQSRNVNSVA | QASTRES | QQYHRLPLS [GP_Gibbs] the result was 10 nM (6 of 6 replicates). The variant KVHAYTQGVEQDMQNVA | ETSYASR | QQYFRLPLS [En_Gibbs] showed 390 nM (5 of 6 replicates). For KQQISVDQESRQKNSVA | NASTREE | QQYHRLPLS [GP_Gibbs], the assay gave 750 pM (6 of 6 replicates).

Repeated from above, the 3 best binders with a signal in all replicates:

| CDR-L1 | CDR-L2 | CDR-L3 | group | apparent Kd | detected |
|---|---|---|---|---|---|
| KLSQGVLMESRNKNSVA | NAGQREE | QQYHRLPLS | GP_Gibbs | 560 pM | 6/6 |
| KLSQSQCYESRNKNNVA | NASDRMS | QQYHRLPLS | GP_Gibbs | 580 pM | 6/6 |
| KISQSWLYEPRNSNSVA | NASTRLQ | QQYHRLPLS | GP_Gibbs | 630 pM | 6/6 |